# Results as given in PMC8231556, “Inhibiting Endothelial Cell Function in Normal and Tumor Angiogenesis Using BMP Type I Receptor Macrocyclic Kinase Inhibitors” (Cancers, 2021).
# By UniProt entry, the sequences of proteins in these tests, tags left out. Where a name states a change or a piece, a line headed by the entry shows the natural chain unless it says otherwise. Residues count along the entry.
# UniProt O95819: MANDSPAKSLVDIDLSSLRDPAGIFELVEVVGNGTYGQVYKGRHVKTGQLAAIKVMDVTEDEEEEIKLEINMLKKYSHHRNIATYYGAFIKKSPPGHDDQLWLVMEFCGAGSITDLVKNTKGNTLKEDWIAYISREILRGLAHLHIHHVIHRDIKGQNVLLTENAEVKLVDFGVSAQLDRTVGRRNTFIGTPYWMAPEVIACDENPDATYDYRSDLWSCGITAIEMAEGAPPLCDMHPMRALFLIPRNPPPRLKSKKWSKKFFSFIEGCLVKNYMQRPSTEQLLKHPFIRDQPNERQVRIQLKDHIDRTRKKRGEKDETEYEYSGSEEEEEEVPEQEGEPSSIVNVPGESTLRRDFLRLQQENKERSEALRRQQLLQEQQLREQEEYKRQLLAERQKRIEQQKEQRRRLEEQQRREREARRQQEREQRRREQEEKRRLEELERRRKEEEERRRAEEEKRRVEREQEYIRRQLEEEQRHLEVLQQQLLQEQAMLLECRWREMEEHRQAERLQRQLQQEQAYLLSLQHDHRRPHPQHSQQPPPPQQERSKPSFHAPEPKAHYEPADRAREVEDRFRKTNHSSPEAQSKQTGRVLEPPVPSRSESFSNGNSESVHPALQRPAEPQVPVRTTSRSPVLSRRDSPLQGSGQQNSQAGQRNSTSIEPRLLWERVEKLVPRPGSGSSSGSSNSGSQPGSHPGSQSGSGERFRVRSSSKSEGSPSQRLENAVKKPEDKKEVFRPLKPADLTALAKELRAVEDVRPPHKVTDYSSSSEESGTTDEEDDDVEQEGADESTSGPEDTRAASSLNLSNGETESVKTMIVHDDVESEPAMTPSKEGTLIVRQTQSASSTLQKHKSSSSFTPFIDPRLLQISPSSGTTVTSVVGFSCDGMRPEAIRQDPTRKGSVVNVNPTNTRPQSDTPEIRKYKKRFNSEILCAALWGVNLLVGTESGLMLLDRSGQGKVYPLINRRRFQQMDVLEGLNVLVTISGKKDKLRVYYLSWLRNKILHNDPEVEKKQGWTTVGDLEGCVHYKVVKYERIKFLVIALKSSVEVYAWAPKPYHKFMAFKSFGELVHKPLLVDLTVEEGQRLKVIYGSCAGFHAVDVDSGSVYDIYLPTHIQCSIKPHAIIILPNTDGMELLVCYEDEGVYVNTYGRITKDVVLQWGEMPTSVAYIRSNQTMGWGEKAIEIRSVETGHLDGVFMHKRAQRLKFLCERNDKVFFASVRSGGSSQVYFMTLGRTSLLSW
# UniProt Q9H0K1: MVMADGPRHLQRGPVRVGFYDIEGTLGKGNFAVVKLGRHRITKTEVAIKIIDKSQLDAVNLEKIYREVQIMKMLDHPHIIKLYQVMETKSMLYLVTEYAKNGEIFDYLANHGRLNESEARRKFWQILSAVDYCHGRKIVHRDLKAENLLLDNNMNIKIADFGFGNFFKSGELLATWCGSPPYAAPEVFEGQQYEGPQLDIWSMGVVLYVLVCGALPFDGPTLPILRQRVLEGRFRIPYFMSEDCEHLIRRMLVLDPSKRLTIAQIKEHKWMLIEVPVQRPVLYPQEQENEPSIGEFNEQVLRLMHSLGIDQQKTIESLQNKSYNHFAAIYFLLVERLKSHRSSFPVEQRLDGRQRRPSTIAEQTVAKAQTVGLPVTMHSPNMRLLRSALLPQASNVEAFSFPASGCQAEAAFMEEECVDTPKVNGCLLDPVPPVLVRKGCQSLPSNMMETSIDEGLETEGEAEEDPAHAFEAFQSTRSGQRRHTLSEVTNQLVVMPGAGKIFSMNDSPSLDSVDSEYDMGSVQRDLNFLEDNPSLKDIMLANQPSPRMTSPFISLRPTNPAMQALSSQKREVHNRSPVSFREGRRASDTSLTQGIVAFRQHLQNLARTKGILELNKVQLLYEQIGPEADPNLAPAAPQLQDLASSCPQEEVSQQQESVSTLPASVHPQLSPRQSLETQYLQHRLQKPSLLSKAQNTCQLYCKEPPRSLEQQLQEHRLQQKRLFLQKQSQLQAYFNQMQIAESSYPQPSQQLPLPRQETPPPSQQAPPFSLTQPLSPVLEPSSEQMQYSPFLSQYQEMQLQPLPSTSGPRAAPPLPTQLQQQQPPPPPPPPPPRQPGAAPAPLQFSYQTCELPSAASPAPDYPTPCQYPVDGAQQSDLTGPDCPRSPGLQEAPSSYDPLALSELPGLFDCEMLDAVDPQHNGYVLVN
# UniProt P15056, whole entry: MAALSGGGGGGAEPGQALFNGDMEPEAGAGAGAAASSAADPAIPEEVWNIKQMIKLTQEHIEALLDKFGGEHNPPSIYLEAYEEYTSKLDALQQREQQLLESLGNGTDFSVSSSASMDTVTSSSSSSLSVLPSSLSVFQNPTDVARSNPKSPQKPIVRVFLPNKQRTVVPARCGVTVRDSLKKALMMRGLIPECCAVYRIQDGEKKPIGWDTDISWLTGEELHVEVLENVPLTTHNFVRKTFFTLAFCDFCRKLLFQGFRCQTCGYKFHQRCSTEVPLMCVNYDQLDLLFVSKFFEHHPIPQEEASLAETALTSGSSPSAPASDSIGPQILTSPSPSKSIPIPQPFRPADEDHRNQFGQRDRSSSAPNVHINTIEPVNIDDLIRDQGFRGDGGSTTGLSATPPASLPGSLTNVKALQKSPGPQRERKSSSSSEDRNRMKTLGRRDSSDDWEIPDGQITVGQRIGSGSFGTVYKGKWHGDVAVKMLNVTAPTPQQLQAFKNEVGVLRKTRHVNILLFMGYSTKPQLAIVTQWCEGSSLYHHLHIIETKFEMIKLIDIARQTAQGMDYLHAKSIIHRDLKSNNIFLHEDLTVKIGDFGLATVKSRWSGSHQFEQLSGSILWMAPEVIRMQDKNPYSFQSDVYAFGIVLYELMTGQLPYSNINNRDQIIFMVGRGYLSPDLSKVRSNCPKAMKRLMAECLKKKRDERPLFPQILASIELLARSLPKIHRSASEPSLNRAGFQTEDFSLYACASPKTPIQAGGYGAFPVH
# UniProt Q9Y4K4: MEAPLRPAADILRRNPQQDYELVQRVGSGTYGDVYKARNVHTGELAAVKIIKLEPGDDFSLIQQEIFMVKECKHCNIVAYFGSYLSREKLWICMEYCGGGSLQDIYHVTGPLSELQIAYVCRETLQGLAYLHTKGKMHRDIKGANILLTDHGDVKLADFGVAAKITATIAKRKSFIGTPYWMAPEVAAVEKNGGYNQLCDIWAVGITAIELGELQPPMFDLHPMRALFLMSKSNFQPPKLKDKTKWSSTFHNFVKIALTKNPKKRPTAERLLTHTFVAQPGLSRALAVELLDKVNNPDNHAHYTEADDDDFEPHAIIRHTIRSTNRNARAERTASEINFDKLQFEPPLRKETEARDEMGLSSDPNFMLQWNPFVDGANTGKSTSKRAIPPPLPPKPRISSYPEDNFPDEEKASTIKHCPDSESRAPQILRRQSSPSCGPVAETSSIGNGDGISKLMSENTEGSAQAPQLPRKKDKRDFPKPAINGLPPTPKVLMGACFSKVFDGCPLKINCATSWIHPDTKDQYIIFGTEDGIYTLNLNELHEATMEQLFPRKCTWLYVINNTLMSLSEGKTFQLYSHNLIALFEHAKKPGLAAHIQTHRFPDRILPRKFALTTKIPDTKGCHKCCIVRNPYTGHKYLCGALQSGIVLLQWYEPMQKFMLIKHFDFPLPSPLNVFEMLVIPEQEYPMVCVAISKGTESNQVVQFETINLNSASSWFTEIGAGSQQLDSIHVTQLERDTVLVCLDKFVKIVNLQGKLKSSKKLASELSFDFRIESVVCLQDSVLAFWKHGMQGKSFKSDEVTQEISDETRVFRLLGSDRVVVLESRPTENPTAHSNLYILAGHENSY
# UniProt P36888, 27-993: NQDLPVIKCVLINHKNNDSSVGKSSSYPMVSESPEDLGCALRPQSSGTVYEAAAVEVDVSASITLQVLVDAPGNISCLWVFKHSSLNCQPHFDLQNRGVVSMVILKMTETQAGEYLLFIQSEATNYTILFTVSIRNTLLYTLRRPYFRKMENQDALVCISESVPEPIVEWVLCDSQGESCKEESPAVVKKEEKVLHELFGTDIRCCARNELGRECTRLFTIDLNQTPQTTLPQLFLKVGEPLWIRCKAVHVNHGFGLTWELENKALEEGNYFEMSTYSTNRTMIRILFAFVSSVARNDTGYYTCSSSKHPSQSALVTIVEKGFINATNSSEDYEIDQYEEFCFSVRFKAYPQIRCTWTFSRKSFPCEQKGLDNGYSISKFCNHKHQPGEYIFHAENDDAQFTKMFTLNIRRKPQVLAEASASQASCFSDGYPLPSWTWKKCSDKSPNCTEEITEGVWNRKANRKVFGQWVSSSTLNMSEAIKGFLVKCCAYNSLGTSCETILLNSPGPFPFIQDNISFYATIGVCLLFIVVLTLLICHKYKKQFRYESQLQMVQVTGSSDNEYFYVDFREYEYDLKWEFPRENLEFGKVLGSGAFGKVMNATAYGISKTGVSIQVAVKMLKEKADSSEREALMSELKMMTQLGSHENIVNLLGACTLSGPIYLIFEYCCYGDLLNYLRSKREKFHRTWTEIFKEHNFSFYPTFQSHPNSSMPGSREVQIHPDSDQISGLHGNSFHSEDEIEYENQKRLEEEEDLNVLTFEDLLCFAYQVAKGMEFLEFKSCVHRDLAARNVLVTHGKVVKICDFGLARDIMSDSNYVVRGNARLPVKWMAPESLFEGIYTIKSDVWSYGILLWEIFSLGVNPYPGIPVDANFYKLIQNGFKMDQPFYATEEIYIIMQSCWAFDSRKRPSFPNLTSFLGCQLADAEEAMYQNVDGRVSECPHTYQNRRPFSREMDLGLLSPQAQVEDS
# Legend:
# Experiment in all cases: radiometric kinase profiling (33 PanQinase)
# Type in all cases: biochemical
# [1] = target: T1, MAP4K4 (Homo sapiens, UniProt O95819); conditions: read-out: Inhibitory effect (%) MAP4K4
# T1 construct: purchased ProQinase (33PanQinase Activity Assay)
# Protocol: (§1) The kinase inhibition profile of the compounds was determined by testing 96 protein kinases’ activity using a radiometric protein kinase assay (33 PanQinase® Activity Assay, Proqinase, Germany). In brief, 10 µL of non-radioactive ATP solution (in H2O), 25 µL of assay buffer/[γ-33 P]-ATP mixture, 5 µL of 0.1 μM the tested compound in 10% DMSO and 10 µL of enzyme/substrate were mixed in 96-well FlashPlatesTM (Perkin Elmer, Boston, MA, USA). The reaction was conducted at 30 °C for 60 min. To stop the reaction, 50 µL of 2% (v/v) H3PO4 was added into the protein kinase reaction cocktails. After which, with 200 µL 0.9% (w/v) NaCl twice, the incorporation of ^33 Pi (counting of “cpm”) was determined with a microplate scintillation counter (Wallac Microbeta, Boston, MA, USA). All protein kinase assays were performed using a BeckmanCoulter Biomek 2000/SL robotic system (Brea, CA, USA). The residual activity (in %) for each compound was normalized to 100% enzyme activity (untreated control) and background (negative control).
# [2] = target: T2, SIK2 (Homo sapiens, UniProt Q9H0K1); conditions: read-out: Inhibitory effect (%) SIK2
# T2 construct: purchased ProQinase (33PanQinase Activity Assay)
# Protocol: as §1
# [3] = target: T3, BRAF (Homo sapiens, UniProt P15056); conditions: read-out: Inhibitory effect (%) BRAF
# T3 construct: purchased Proqinase, Germany
# Protocol: as §1
# [4] = target: T4, MAP4K5 (Homo sapiens, UniProt Q9Y4K4); conditions: read-out: Inhibitory effect (%) MAP4K5
# T4 construct: purchased ProQinase (33PanQinase Activity Assay)
# Protocol: as §1
# [5] = target: T5, FLT3 (Homo sapiens, UniProt P36888); conditions: read-out: Inhibitory effect (%) FLT3
# T5 construct: purchased ProQinase (33PanQinase Activity Assay)
# Protocol: as §1
structure (smiles),measurement,setting,value
"c1ccc2c(-c3cnn4cc(-c5ccc(N6CCNCC6)cc5)cnc34)ccnc2c1 [LDN-193189, reference compound]",inhibition at 0.1 µM,[1],-4.01%
same,inhibition at 0.1 µM,[2],44%
same,inhibition at 0.1 µM,[3],7.79%
same,inhibition at 0.1 µM,[4],39.7%
same,inhibition at 0.1 µM,[5],3.07%
